Source: PubChem BioAssay AID1320 (NMMLSC, 2008)
The list shows a part of the results, in another mix than the full data. Activity calls are given as the source filed them. The rule behind the calls is not given here.

Sequences of proteins named here, by UniProt entry; tags and fusion partners are left off. A change or cut given only in a name is not applied to a line headed by its entry.
UniProt Q16548: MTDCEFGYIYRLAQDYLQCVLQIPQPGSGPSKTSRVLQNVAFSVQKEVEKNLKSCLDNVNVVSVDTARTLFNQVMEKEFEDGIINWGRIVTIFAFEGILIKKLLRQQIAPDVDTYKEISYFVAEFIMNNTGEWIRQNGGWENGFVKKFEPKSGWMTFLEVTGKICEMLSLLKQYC

Target: Bcl-2-related protein A1 (Homo sapiens) (UniProt Q16548)
Assay: Bfl-1/Bim complex disruptors – biochemical, multiplexed, bead-based flow cytometry, dose response (AID 1320); note: test concentration not given here
Conditions: Bim peptide-Bfl-1 binding, fluorescence

With `CCOP1(=S)c2c(C)nn(CCC#N)c2N=C(c2ccc(F)cc2)N1C` (stereo unspecified) the “percent span (inhibition)” value was “inactive”.
